ChEMBL document CHEMBL3259727, “Cathepsin C inhibitors: property optimization and identification of a clinical candidate” (J Med Chem, 2014)
pIC50: −log10 of the molar value.

By UniProt entry, the sequences of proteins in these tests, tags left out. Residues count along the entry.
UniProt P53634, 395-463 limits assumed: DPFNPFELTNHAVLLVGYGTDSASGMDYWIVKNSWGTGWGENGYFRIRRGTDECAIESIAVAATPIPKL
UniProt P53634, 25-134 limits assumed: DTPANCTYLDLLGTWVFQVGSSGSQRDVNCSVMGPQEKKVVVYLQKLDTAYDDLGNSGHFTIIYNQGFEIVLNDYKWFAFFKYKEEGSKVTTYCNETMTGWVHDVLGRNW
UniProt P53634, 231-394 limits assumed: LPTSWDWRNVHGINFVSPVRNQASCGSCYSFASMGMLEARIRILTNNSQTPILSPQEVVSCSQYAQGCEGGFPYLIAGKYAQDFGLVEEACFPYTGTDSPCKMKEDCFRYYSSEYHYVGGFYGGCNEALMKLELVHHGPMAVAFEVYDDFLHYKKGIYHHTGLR

Assays:
Dipeptidyl peptidase 1 [1] = molecular target: T1, Dipeptidyl peptidase 1 (Homo sapiens, UniProt P53634); assay: Inhibition of recombinant human cathepsin C using H-Gly-Arg-AMC as substrate preincubated for 30 mins before substrate addition measured after 60 mins by fluorescence assay
Dipeptidyl peptidase 1 [2] = molecular target: T1, Dipeptidyl peptidase 1; assay: Inhibition of cathepsin C in human THP1 cells assessed as inhibition of H-Gly-Phe-AFC cleavage by fluorescence assay; format: cell-based, THP-1
Outline: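 Cellular CatC activity in human THP1 cells measured as cleavage of fluorogenic substrate H-Gly-Phe-AFC; pIC50 determined.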

Compound `N#Cc1ccc(-c2ccc(C[C@@H](C#N)NC(=O)C3(N)CCOCC3)cc2)cc1` has a pIC50 (Dipeptidyl peptidase 1 [1]) of 9.00 and a pIC50 (Dipeptidyl peptidase 1 [2]) of 8.30.
